miR-21 reporter: raises the signal of a miR-21 reporter | HeLa miR-21 FLuc reporter, luciferase, 48 h | Potency, µM (highest dose often 38.3 µM), inactives show at the highest dose reporter change, positive = more light | 340,000 tested, under 10 active | AID 2288; active = well fitted rising curve with a large enough effect; inconclusive = small, poorly fitted or top-dose-only effect; inactive = no such curve, though single readings can be large or run the other way;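 note: % of control where 0% means no effect; miR-21 action dims this reporter so a rising signal means less miR-21 action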
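HeLa cells stably expressing CMV-driven firefly luciferase with a downstream miR-21 binding sequence, endogenously expressing miR-21, were treated with titrations (up to about 40uM final) for 48 hours at 37 degree Celsius. Luciferase luminescence was read after lysis.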
uPA surface inh: blocks generation of uPA at the cell surface. Potency, µM (titrated, usually from 38.3 µM), without a hit: top-dose activity change, negative = inhibition, most hits filed as inhibitors. cell surface uPA generation assay, qHTS. actives 0.31% (n = 330,000); active means well fitted inhibition curve with a large enough effect; inconclusive means small, poorly fitted or top-dose-only effect; inactive means no such curve, though single readings can be large or run the other way; tested in mouse RAW 264.7 cells; further: potency means the concentration at half of the fitted maximal effect; on the % scale 0 is the no-effect control and ±100 the full control effect; nearly all actives have a fitted effect of over 55% in size
TDP1 cell CPT: growth inhibition of DT40 Tdp1-/-;hTDP1 cells with camptothecin (screen for TDP1 inhibitors). chicken DT40 Tdp1-/-;hTDP1 cells + 20 nM CPT, ATP luminescence, 48 h. Potency, µM (highest dose often 46.2 µM), for inactives: at the top dose activity change, negative = growth inhibition, actives largely listed as inhibitors. actives 12% (n = 420,000); further: potency means the concentration at half of the fitted maximal effect; on the % scale 0 is the no-effect control and ±100 the full control effect; nearly all actives have a fitted effect of over 55% in size
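Cell growth measured by CellTiter-Glo luminescence after a minimum 48 h, 37 C compound exposure with 20 nM CPT in Tdp1-knockout DT40 cells stably expressing hTDP1, seeded 400/well; qHTS titration format.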
TDP1 block: inhibitors of human tyrosyl-DNA phosphodiesterase TDP1; recombinant TDP1, AlphaScreen DNA substrate cleavage; Q9NUW8; Potency, µM (series often up to 130 µM), for the others: at the top dose activity change, negative = inhibition, usual class: inhibitors; actives 0.28% (n = 350,000); further: potency means the concentration at half of the fitted maximal effect; on the % scale 0 is the no-effect control and ±100 the full control effect; nearly all actives have a fitted effect of over 40% in size
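Recombinant human Tdp1 (E. coli-expressed, 1 nM final) preincubated with compounds 15 min at room temperature, then 5'-biotin/3'-phosphotyrosine-FITC DNA substrate (15 nM final) added for 5 min. AlphaScreen beads (10 ug/ml final) added 10 min; cleavage lowers signal.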
TDP1 cell noCPT: qHTS for Inhibitors of human tyrosyl-DNA phosphodiesterase 1 (TDP1): qHTS in cells in absence of CPT | DT40 Tdp1-/- hTDP1 cells, no CPT, ATP luminescence, 48 h | Potency, µM (doses to about 46.2 µM), for the others: at the highest dose activity change, negative = growth inhibition, most hits filed as inhibitors | actives 15% (n = 420,000); further: potency means the concentration at half of the fitted maximal effect; on the % scale 0 is the no-effect control and ±100 the full control effect; nearly all actives have a fitted effect of over 55% in size
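Luminescent ATP content (CellTiter-Glo) served as the growth readout. Knockout chicken DT40 cells expressing human TDP1 were exposed to compounds without camptothecin for a minimum 48 hr at 37 °C.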
* hit, by the source's call; ? = inconclusive; . = no result; [ ] = remark or other dose. An excerpt weighted towards active compounds, which were near 16% of everything screened. Unless noted, the call rests on the fitted dose curve; in most records, active means well fitted curve in the direction sought with a large enough effect; inconclusive means small, poorly fitted or top-dose-only effect, or another doubt; inactive means no such curve, though single readings can be large; an effect the other way counts as inactive or inconclusive.

Order of values – miR-21 reporter, uPA surface inh, TDP1 cell CPT, TDP1 block, TDP1 cell noCPT
- CC1(C(=O)NNC(=S)NCc2ccco2)CC1(Cl)Cl (stereo not drawn)
→ 1.3%, 10.0%, -15.4%, 6.0%, 4.5%
- CCOc1ccccc1N(CC(=O)Nc1cccnc1)S(=O)(=O)c1ccc(C)cc1
→ 7.0%, 1.6%, 18.4µM*, 9.0%, ?
- COC(=O)CN(c1ccccc1OC)S(=O)(=O)c1ccccc1
→ -3.0%, 2.5%, -4.0%, 2.3%, -14.9%
- COc1ccc(OC)c(N(CC(=O)Nc2cccnc2)S(=O)(=O)c2ccc(C)cc2)c1
→ 19.2%, ?, 16.4µM*, 5.6%, ?
- CCOc1ccccc1N(CC(=O)Nc1cccnc1)S(C)(=O)=O
→ -1.9%, -2.3%, 1.9%, -4.7%, 6.1%
- COc1ccccc1N(CC(=O)Nc1ccc(Cc2ccncc2)cc1)S(=O)(=O)c1ccccc1
→ 16.0%, 2.7%, 23.1µM*, ., ?
- CCCCOC(=O)c1ccc(NC(=O)C(=O)NCCN(C)C)cc1
→ -5.0%, -16.0%, ?, ., 20.6µM*
- CCOC(=O)N1c2ccccc2C=CC1OCC (stereo not drawn)
→ -1.9%, ., ., 5.8%, .
- Cc1ccccc1NC(=O)CN(c1ccc(Cl)cc1Cl)S(=O)(=O)c1ccccc1
→ 11.1%, ., 18.4µM*, 4.5%, ?
- COc1ccc(NC(=O)CN(c2cccc(C)c2C)S(=O)(=O)c2ccccc2)cc1OC
→ -2.1%, ., 23.1µM*, ., ?
- COc1ccccc1C(=O)Nc1ccc(Cc2ccncc2)cc1
→ -14.6%, -0.7%, ?, 5.4%, 20.6µM*
- COc1ccc(N(CC(=O)Nc2ccc(C)c(C)c2)S(=O)(=O)c2ccc(C)cc2)cc1OC
→ -14.0%, ., -5.8%, 2.2%[12.3 µM], -17.4%
- CCOc1ccccc1N(CC(=O)Nc1ccccc1)S(=O)(=O)c1ccccc1
→ 15.8%, 4.8%, ?, ., 25.9µM*
- CCCCOC(=O)c1ccc(NC(=O)c2ccccc2OC)cc1
→ 5.5%, -6.1%, 20.6µM*, 5.1%, ?
- COc1ccc(S(=O)(=O)N(Cc2nc(-c3cccc(C)c3)no2)C2CCCCC2)cc1
→ -1.1%, ., 14.6µM*, 0.0%, ?
- Cc1cccc(-c2noc(CN(C3CCCCC3)S(=O)(=O)c3ccc(F)cc3)n2)c1
→ -18.4%, ., 20.6µM*, -4.9%, 14.6µM*
- Cc1cccc(-c2noc(CN(C)S(=O)(=O)c3cc(Cl)ccc3Cl)n2)c1
→ -22.9%, ., -28.4%, -2.3%, -29.1%
- Cc1ccc(S(=O)(=O)N(Cc2nc(-c3cccc(C)c3)no2)C2CCCCC2)cc1
→ 0.1%, ., ?, ., 10.3µM*
- Cc1ccc(NC(=O)CN2C(=O)c3ccccc3Sc3ccc(C(=O)N4CCCC4)cc32)cc1
→ 1.7%, ., 1.1%, 0.9%, -18.6%
- Cc1cccc(C)c1N1C(=O)c2ccccc2NC(=O)C1C(=O)NCC(C)C (stereo not drawn)
→ ., ., -5.2%, ., 4.8%
- CC(=O)c1cccc(NC(=O)c2nc(-c3ccccc3)n(-c3ccccc3C)n2)c1
→ -2.0%, ., 25.9µM*, 8.6%, 20.6µM*
- COc1ccc(-c2nc(C(=O)Nc3cccc(C(C)=O)c3)nn2-c2ccc(Cl)cc2)cc1
→ -2.4%, ., ?, 5.7%, ?
- CC(=O)c1cccc(NC(=O)c2nc(-c3ccccc3)oc2C)c1
→ -6.1%, 5.4%, ?, 3.7%, 14.6µM*
- c1ccc(-c2cc3c(N4CCOCC4)ncnc3s2)cc1
→ -25.5%, 4.6%, 16.4µM*, 4.2%, 14.6µM*
- c1ccc(-c2cc3c(N4CCCCC4)ncnc3s2)cc1
→ -14.8%, -3.3%, -39.0%, 2.5%, ?
- OCCN1CCN(c2ncnc3sc(-c4ccccc4)cc23)CC1
→ -40.2%, -12.5%, ?, 2.4%, 14.6µM*
- c1ccc(-c2cc3c(N4CCCC4)ncnc3s2)cc1
→ -12.8%, -8.7%, ?, 4.8%, 20.6µM*
- Cc1nc(N2CCOCC2)c2cc(-c3ccccc3)sc2n1
→ -40.4%, 12.6%, ?, 3.0%, 18.4µM*
- Cc1ccccc1OC(=O)c1snnc1C
→ 0.8%, ., 7.7%, -3.6%, 0.1%
- CN1C(=O)C(N=Nc2ccc([N+](=O)[O-])cc2)SC1=S (stereo not drawn)
→ ., -17.3%, 7.31µM*, ., 6.51µM*
- Cc1ccc(C)c(N2CCN(C(=O)c3ccc(Nc4nc5ccccc5n5nnnc45)cc3)CC2)c1
→ -3.7%, ., 2.3%, 7.5%, -11.0%
- CC1(C)C(C=C(Cl)Cl)C1C(=O)N/N=C/c1ccccc1F (stereo not drawn)
→ 1.4%, 5.2%, ?, ., 29.1µM*
- O=C(Nc1ccc([N+](=O)[O-])cc1)C1CC1(c1ccccc1)c1ccccc1 (stereo not drawn)
→ 1.2%, 2.4%, ?, 4.2%, ?
- CC1(C)OC2OC(C(=O)N/N=C/c3ccccc3F)C3OC(C)(C)OC3C2O1 (stereo not drawn)
→ -2.0%, 6.0%, 0.9%, 0.0%, -2.7%
- CC1(C)C(C=C(Cl)Cl)C1C(=O)Nc1ccc([N+](=O)[O-])cc1 (stereo not drawn)
→ 27.4%, -7.1%, 18.4µM*, -2.3%, 16.4µM*
- Cc1ccccc1Nc1nnc(-c2ccc(C)c(S(=O)(=O)N3CCOCC3)c2)c2ccccc12
→ 16.6%, ., ?, 0.4%[12.3 µM], 16.4µM*
- Cc1ccc(Nc2nnc(-c3ccc(C)c(S(=O)(=O)N4CCOCC4)c3)c3ccccc23)c(C)c1
→ -6.2%, ., ?, -0.4%[12.3 µM], 16.4µM*
- CNS(=O)(=O)c1cc(-c2nnc(Nc3cc(C)ccc3C)c3ccccc23)ccc1C
→ 11.1%, ., 20.6µM*, -1.3%[12.3 µM], 20.6µM*
- O=S(=O)(c1ccccc1)c1ccc(C(F)(F)F)cn1
→ -2.7%, 1.1%, -23.2%, 3.5%, -6.8%
- COc1ccc(NC(=O)c2cccc(S(=O)(=O)NCc3ccco3)c2)c(OC)c1
→ ., -1.2%, -23.2%, ., ?
- Cn1c(O)c(N=NC(=O)Cn2ccc(C(F)(F)F)n2)c2ccccc21
→ -7.2%, -1.8%, -3.5%, 3.5%, -20.2%
- COc1ccc(OC)c(NC(=S)N2CCN(C(=O)C3CCCO3)CC2)c1 (stereo not drawn)
→ 5.1%, 13.7%, 3.7%, 1.9%, 14.6%
- CC(=O)c1cccc(NC(=O)/C=C/c2ccc([N+](=O)[O-])s2)c1
→ -7.5%, -10.9%, 1.3µM*, 5.3%, 1.46µM*
- Cc1cc(C)cc(NC(=O)/C=C/c2ccc([N+](=O)[O-])s2)c1
→ -2.2%, -12.0%, ?, 0.0%, 1.16µM*
- Cc1ccccc1NC(=O)/C=C/c1cccs1
→ -58.5%, -3.4%, ?, 0.0%, ?
- Cc1ccccc1NC(=O)/C=C/c1ccc([N+](=O)[O-])s1
→ ?, -9.8%, 0.92µM*, 2.6%, 0.82µM*
- O=C(/C=C/c1cccc([N+](=O)[O-])c1)Nc1cc(C(=O)O)cc(C(=O)O)c1
→ -0.1%, -0.1%, ?, -5.3%, ?
- CN(NS(=O)(=O)c1ccc([N+](=O)[O-])cc1)c1ccccc1
→ ., ., 2.6%, ., -6.2%

Fetched by compound from the list above, 5 records:
Order of values – miR-21 reporter, uPA surface inh, TDP1 cell CPT, TDP1 block, TDP1 cell noCPT
- Cc1ccccc1NC(=O)/C=C/c1cccs1
→ -58.5%, -3.4%, ?, 0.0%, ?
- Cc1ccccc1NC(=O)/C=C/c1ccc([N+](=O)[O-])s1
→ ?, -9.8%, 0.92µM*, 2.6%, 0.82µM*
- CC(=O)c1cccc(NC(=O)/C=C/c2ccc([N+](=O)[O-])s2)c1
→ -7.5%, -10.9%, 1.3µM*, 5.3%, 1.46µM*
- CN(NS(=O)(=O)c1ccc([N+](=O)[O-])cc1)c1ccccc1
→ ., ., 2.6%, ., -6.2%
- O=C(/C=C/c1cccc([N+](=O)[O-])c1)Nc1cc(C(=O)O)cc(C(=O)O)c1
→ -0.1%, -0.1%, ?, -5.3%, ?

From PubChem
